Assay results published in publication PMC5430895, “Importance of the novel organic cation transporter 1 for tyrosine kinase inhibition by saracatinib in rheumatoid arthritis synovial fibroblasts” (Scientific Reports, 2017).
pIC50: −log10 of the molar value.

Biological target: T1, hOCT3 (Homo sapiens, UniProt O75751)
T1 sequence (O75751 1-556): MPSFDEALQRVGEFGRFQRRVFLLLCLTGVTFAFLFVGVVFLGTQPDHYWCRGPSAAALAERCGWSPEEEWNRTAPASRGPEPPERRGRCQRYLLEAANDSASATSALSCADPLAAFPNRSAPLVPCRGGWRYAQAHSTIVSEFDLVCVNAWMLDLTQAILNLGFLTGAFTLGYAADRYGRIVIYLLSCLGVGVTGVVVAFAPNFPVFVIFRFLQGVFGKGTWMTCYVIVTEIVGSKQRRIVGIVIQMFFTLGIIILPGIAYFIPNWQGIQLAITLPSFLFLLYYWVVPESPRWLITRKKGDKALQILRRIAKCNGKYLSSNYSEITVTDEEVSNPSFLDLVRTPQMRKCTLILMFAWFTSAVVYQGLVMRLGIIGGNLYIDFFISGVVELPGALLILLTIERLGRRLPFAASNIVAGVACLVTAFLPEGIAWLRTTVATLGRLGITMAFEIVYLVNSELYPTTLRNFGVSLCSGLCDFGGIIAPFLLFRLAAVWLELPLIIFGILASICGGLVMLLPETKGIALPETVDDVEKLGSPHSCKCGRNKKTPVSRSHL
Assay: Inhibition of ASP+ uptake in hOCT3-HEK293 cells (apparent affinity)
Assay type: cell-based
Set-up: expressed in transfected cells; host or cells: HEK293
Conditions: hOCT3-HEK293, ASP+ 1 µM
Method: Apparent affinities of hOCT1, hOCT2, hOCT3, and hOCTN1 for saracatinib were determined in transfected HEK293 cells by inhibiting the uptake of the known OCT substrate ASP^+ (1 μM) with saracatinib (10^−10 to 10^−3 M) as described elsewhere.

CN1CCN(CCOc2cc(OC3CCOCC3)c3c(Nc4c(Cl)ccc5c4OCO5)ncnc3c2)CC1 [saracatinib, N-(5-chloro-1,3-benzodioxol-4-yl)-7-[2-(4-methylpiperazin-1-yl)ethoxy]-5-(tetrahydro-2H-pyran-4-yloxy)quinazolin-4-amine]
pIC50: 4.30
